{"source": "ChEMBL document CHEMBL3994604", "about": "“Ostalactones A-C, β- and ε-Lactones with Lipase Inhibitory Activity from the Cultured Basidiomycete Stereum ostrea” (J Nat Prod, 2016)", "molecular_target": "T1, Pancreatic triacylglycerol lipase (Homo sapiens) (UniProt P16233)", "T1 sequence (whole entry)": "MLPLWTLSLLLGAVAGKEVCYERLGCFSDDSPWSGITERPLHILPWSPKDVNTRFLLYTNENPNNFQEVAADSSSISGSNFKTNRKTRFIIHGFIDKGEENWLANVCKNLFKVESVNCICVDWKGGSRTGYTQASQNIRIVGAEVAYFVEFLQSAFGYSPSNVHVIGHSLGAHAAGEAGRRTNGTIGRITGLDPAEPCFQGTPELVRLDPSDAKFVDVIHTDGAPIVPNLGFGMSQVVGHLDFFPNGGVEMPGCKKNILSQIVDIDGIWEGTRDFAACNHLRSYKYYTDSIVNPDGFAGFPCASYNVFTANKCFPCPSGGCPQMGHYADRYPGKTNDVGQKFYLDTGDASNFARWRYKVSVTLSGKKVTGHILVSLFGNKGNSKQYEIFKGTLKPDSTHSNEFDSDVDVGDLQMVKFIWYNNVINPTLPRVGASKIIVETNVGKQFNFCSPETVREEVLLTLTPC", "experiment": "Inhibition of human pancreatic lipase using 4-methylumbelliferyl oleate as substrate after 30 mins by fluorometric method", "note": "Calls of active or inactive are those of the source. The calls are words filed in the database; no cut-off is given here.", "data": [{"smiles": "C/C(=C\\CC1C=C(CO)C=COC1=O)CO", "note": "(stereo unspecified)", "values": [{"measurement": "inhibition", "value": "inactive"}]}]}
